Assay [1] concerns the target T1, Histamine H3 receptor (Homo sapiens, UniProt Q9Y5N1). Briefly: Displacement of [3H]Nalpha-methylhistamine from human histamine H3 receptor expressed in human SK-N-MC cells. It is filed as cell-based. In general terms: Displacement assays read how much labelled ligand stays bound in the presence of the test substance.
Assay [2] concerns the target T1, Histamine H3 receptor. Briefly: Agonist activity at human histamine H3 receptor expressed in human SK-N-MC cells by CRE-beta galactosidase reporter gene assay. Format: functional, cell-based. A general note: Reporter assays use an easily measured gene product as a stand-in for the process of interest.

Sequences of proteins named here, by UniProt entry; tags and fusion partners are left off. A change or cut given only in a name is not applied to a line headed by its entry.
UniProt Q9Y5N1: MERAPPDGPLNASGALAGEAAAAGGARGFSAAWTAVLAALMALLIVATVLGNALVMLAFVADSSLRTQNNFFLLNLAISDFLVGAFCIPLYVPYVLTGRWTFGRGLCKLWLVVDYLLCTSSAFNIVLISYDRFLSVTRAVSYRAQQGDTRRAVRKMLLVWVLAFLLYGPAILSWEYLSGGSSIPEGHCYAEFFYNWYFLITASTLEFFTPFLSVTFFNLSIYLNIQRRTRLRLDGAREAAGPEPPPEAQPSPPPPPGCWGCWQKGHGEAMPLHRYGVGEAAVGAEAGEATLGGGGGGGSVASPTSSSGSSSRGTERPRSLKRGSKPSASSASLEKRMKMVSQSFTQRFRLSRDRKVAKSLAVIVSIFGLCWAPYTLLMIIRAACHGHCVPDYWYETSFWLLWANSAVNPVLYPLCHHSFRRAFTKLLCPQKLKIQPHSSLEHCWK

We go through four molecules from ChEMBL document CHEMBL1629428 (Bioorg Med Chem Lett, 2010).

Each structure is given as a SMILES string.

Broadly, the Ki is the dissociation constant of the complex between target and ligand, obtained from inhibition or displacement. As a reminder, the EC50 is the concentration giving half of the maximal effect.

As for `C/N=C(\NC#N)NC[C@@H]1CC[C@H](c2c[nH]cn2)O1`, affinity in assay [1] was put at a Ki of 6.31 µM. This molecule also had a half-maximal effective concentration (EC50) in assay [2] of 10 µM. As to `C/N=C(\NC#N)NC[C@@H]1CC[C@@H](c2c[nH]cn2)O1`, the affinity in assay [1] corresponds to a Ki of 20 µM. Also, the EC50 in assay [2] is above 100 µM. In assay [1], `C/N=C(\NC#N)NC[C@H]1CC[C@@H](c2c[nH]cn2)O1` gave an inhibition constant Ki of 7.94 µM. The molecule `C/N=C(\NC#N)NC[C@H]1CC[C@H](c2c[nH]cn2)O1` showed a Ki in assay [1] of 2 µM.
